# scFv variants of Ab-14 (heavy chain) against a SARS-CoV-2 spike peptide

Data: MIT Lincoln Laboratory AlphaSeq set, Engelhart et al. 2022, doi:10.1038/s41597-022-01779-4, as distributed in FLAb.

Target: peptide PDVDLGDISGINAS, taken from heptad repeat 2 (HR2) of SARS-CoV-2 spike.

Parent: Ab-14, a human scFv built as VH, three GGGGS repeats, VL. Only the CDRs of the heavy chain vary.
VH: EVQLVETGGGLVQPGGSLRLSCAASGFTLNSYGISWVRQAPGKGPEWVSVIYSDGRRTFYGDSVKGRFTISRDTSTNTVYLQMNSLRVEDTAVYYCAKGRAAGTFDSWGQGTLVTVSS
VL: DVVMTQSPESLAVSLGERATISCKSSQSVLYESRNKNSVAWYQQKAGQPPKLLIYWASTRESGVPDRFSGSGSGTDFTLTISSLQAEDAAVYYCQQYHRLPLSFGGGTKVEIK

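Phage display of a naive human antibody library on the peptide gave the parent. Variants in AAYL49 differ from the parent at up to three CDR positions; double and triple changes were sampled at random. In AlphaSeq, yeast of one mating type display the scFv and yeast of the other type display the target. Mating (16 h, 30 °C) was followed by selection of diploids and sequencing of their barcodes. Read counts were normalised to the haploid input and turned into Kd by a linear fit to BCL2-family pairs of known affinity, for each replicate. The assay was run in three technical replicates.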

Positions count from residue 1 of the parent VH; R56L puts L in place of R. Numbers give log10(Kd / nM), so 0 is 1 nM and 3 is 1 µM. Smaller is tighter. Averages over replicates are reported, and they cover detected replicates only. A pair that was not seen in that replicate is written "ND"; this usually means weak binding, but a binder can also be missed. Empty control strains, which show no peptide, gave a signal in 15% of pairings with library AAYL49; the median was 4.06 and 95% of these signals were weaker than 2.83. No background was subtracted. Also given: how often the same scFv was detected with the empty control strains, with their mean in brackets.

changes,"replicates, log10 nM","mean, log10 nM",signal with controls
R56L+A102D+D106R,0.44 / 0.87 / 0.61,0.64,3 of 9 (4.46)
D54L+R56S+K65A,4.50 / 2.72 / ND,3.61,0 of 9
V50N+R57K+R100W,4.53 / ND / 3.10,3.82,2 of 9 (3.48)
F27D+G103W+D106Y,ND / ND / ND,ND,0 of 9
F27K+T28L,1.94 / 1.46 / 1.64,1.68,0 of 9
I34L+S53P,ND / 3.08 / ND,3.08,0 of 9
D62L+K65Q+R100P,ND / ND / 3.01,3.01,0 of 9
G26R+F27H+S107M,1.04 / 1.17 / 1.62,1.28,0 of 9
L29F,1.79 / 1.63 / 1.98,1.80,1 of 9 (3.41)
Y60T+A101E+S107A,0.87 / 1.01 / 1.00,0.96,1 of 9 (4.88)
Y32G+S35A+D106Q,5.70 / ND / ND,5.70,3 of 9 (3.93)
V50M+S53W+K65W,ND / ND / ND,ND,1 of 9 (3.06)
Y52I+T58S+K65F,ND / ND / ND,ND,2 of 9 (3.92)
F27H+S53W+S63P,3.76 / 4.28 / 4.68,4.24,2 of 9 (4.55)
N30F+G33P+G99L,3.67 / ND / ND,3.67,3 of 9 (3.75)
Y60V+G61T,0.84 / 1.09 / 1.03,0.99,2 of 9 (3.69)
I34A+R57A+A101H,ND / ND / ND,ND,0 of 9
L29Y+G55M+T58V,4.50 / ND / 4.97,4.73,1 of 9 (5.60)
F59Q+Y60S+S63T,ND / ND / 3.58,3.58,0 of 9
R56G+G61P+A101P,4.31 / ND / ND,4.31,3 of 9 (4.36)
I34E+V64K+K65L,ND / ND / ND,ND,0 of 9
G26C+G61T+D106C,4.32 / 3.53 / 3.08,3.64,3 of 9 (4.76)
G55D+S63C+V64L,ND / ND / ND,ND,0 of 9
D54S+R56Y+R57C,ND / ND / ND,ND,0 of 9
L29S+I34E+F59N,ND / ND / ND,ND,2 of 9 (3.99)
G26Y+T28S+G99H,ND / 2.35 / ND,2.35,2 of 9 (3.83)
T28A+F59Y+G61K,-0.14 / 0.25 / -0.04,0.02,2 of 9 (4.94)
Y52C+G55E+G99R,ND / ND / ND,ND,1 of 9 (3.04)
L29Y+N30H+D54I,ND / ND / ND,ND,0 of 9
S63Q+A101Q+G103H,ND / 3.69 / ND,3.69,1 of 9 (4.23)
D62K+R100M+A101I,0.63 / 1.09 / 0.99,0.90,0 of 9
L29F+I34N+G103Y,ND / ND / ND,ND,0 of 9
S31E+F59N+D62T,1.55 / 1.44 / 1.58,1.52,6 of 9 (4.71)
G26F+Y32E+F59T,3.97 / 4.66 / ND,4.32,3 of 9 (4.00)
F27Q+Y60R+R100C,ND / ND / ND,ND,2 of 9 (4.88)
V50Q+D54G+T104C,ND / ND / ND,ND,0 of 9
T28A+S31Q+F105I,0.09 / 0.42 / 0.20,0.23,1 of 9 (3.56)
F27E+S31V+D62S,3.69 / 2.84 / 3.36,3.29,3 of 9 (3.87)

The 5 strongest on average among those seen in every replicate, once more:

changes,"replicates, log10 nM","mean, log10 nM",signal with controls
T28A+F59Y+G61K,-0.14 / 0.25 / -0.04,0.02,2 of 9 (4.94)
T28A+S31Q+F105I,0.09 / 0.42 / 0.20,0.23,1 of 9 (3.56)
R56L+A102D+D106R,0.44 / 0.87 / 0.61,0.64,3 of 9 (4.46)
D62K+R100M+A101I,0.63 / 1.09 / 0.99,0.90,0 of 9
Y60T+A101E+S107A,0.87 / 1.01 / 1.00,0.96,1 of 9 (4.88)